Measurements taken from US20210106700A1, “Fractionated Dosing of a Phospholipid Ether Analog for the Treatment of Cancer” (Cellectar Biosciences, Inc., priority 2018, published 2021).

Assay: Clinical trial: single bolus (Cohort 4) versus fractionated dose (Cohort 5), adverse events and efficacy
Assay type: in vivo, human
Settings: second row of Table 2, fractionated dose (Cohort 5 per text)
Text: However even though more drug was provided to the patient the average grade of adverse events reduced and the median grade remained the same. […] Median overall survival increased from 6.5 months (bolus dose) to 7.4 months (fractionated dose) with assessment of the median overall survival in the fractionated dose group still ongoing. Average progression free survival increased from 2.8 to 2.9 months, respectively, again with assessment ongoing in the fractionated dose group. Average reduction in surrogate markers of efficacy were greater between the cohorts with patients receiving a single bolus dose experience on average a 29% reduction in surrogate markers versus an average 40% reduction for those receiving a fractionated dose.
Dosing is based upon body surface area or BSA in millicuries/meter squared (mCi/m^2). Patients either received a single 30 minute infusion of 31.25 mCi/m^2 on day 1 or a 30 minute fractionated infusion dose of 15.625 mCi/m^2 on day 1 and then repeated on day 8.

^131I-labeled 18-(p-iodo-phenyl)octadecyl phosphocholine [CLR 131]
Adverse Events Average Grade: 2.95 ± 1.10
